{
  "source": "patent US11098113B2",
  "about": "“Immunoglobulin single variable domains directed against macrophage migration inhibitory factor” (VIB VZW, priority 2016, dated 2021)",
  "molecules": {"B1": {"name": "E10: anti-MIF immunoglobulin single variable domain (Nanobody), Family VII, SEQ ID NO: 1 (protein)", "VHH": "EVQLVESGGGSVQAGDSLRLSCAASGRTLSNSIMGWFRQAPGKEREFVANINWSGTSRLYADSVKGRFTISRDNTKSTVYLQMNSLKPEDTAIYYCAARSSTMSATDYWGQGTQVTVSS", "modifications": "Nanobody Sequence"}},
  "key": {"[1]": {"target": "T1, recombinant mouse MIF (rmMIF) (Mus musculus, UniProt P34884)", "T1 construct": "purchased R&D systems", "assay": "Surface plasmon resonance, binding to immobilized mouse MIF", "conditions": "SPR, mouse MIF immobilised on CM5 chip, 1:1 Langmuir model", "experimental": "(§1) Surface plasmon resonance (SPR) experiments were performed on a BIAcore T200 system (GE Healthcare). Recombinant mouse MIF (rmMIF) or rhMIF (R&D systems) was immobilized on a CM5 chip (GE Healthcare). Briefly, the carboxylated dextran matrix was activated by injection of 0.2 M N-ethyl-N′-(3-diethylaminopropyl) carbodiimide (EDC) and 0.05 M N-hydroxysuccinimide (NHS) at a flow rate of 5 μl/min for 7 min. A rmMIF solution of 5 μg/ml prepared in coupling buffer (50 mM sodium acetate pH 4.0) was subsequently injected until 200 R.U. was immobilised. Next, the surface immobilisation was blocked by injection of 1 M ethanolamine hydrochloride for 7 min. As a reference, the surface in another flow cell was used and treated only with EDC, NHS, and ethanolamine. Data for the rmMIF-ISVD interaction were collected in the format of a kinetic titration (27). Sensorgrams for the anti-mMIF ISVDs/ISVD-constructs were collected at five different concentrations (½ serial dilution starting from 100, 150, 200 or 750 nM) plus a 0 concentration (injection of running buffer, i.e. HBS [10 mM Hepes (pH 7.5), 150 mM NaCl, 3.5 mM EDTA, 0.005% (v/v) Tween-20]) at a flow rate of 30 μl/min and a data collection rate of 10 Hz. Analyte injections were performed with association phases of 180 s and a dissociation phase of 600 s. This was followed by 5 pulses of 15 μl regeneration buffer (HBS+100 mM NaOH). Prior to data analysis, reference and zero concentration data were subtracted from the sensorgrams. The data were analyzed with a 1:1 Langmuir binding model (27). Data for the rhMIF-ISVD interaction were collected as described elsewhere (28) and analyzed with a 1:1 Langmuir binding model."}, "[2]": {"test_system": "LPS stimulated RAW264.7 macrophages", "assay": "TNF production by LPS stimulated RAW264.7 macrophages", "type": "cell-based, murine", "conditions": "RAW264.7, LPS, ISVD at a concentration of 0.5-1.67 μM", "experimental": "FIG. 1: Inhibition of MIF's biological activities by anti-MIF ISVDs (indicated as “Nb”). […] Briefly, cells were treated with 500 nM of each anti-MIF ISVD and an irrelevant ISVD was used as a negative control. After 18 hours of incubation, cell culture supernatants were collected for the determination of TNF concentration. Data is shown as the mean±SEM. Statistical analysis was performed by comparing TNF levels of ISVD-treated LPS-stimulated cells to levels of untreated LPS-stimulated cells. The dotted line represents TNF levels (cut-off level) of mice stimulated with LPS alone. D) Inhibition of MIF D-dopachrome tautomerase activity by anti-MIF ISVDs. ISO-1 was used as positive control. The activity was determined by the semi-continuous reduction in signal (tautomerization) measured at OD450nm in the presence and absence of anti-MIF ISVDs. The % activity was expressed in relationship to the tautomerase activity of rmMIF alone. The dotted line represents 100% activity (i.e. when only MIF was used). […]\nExperiments were performed using either the human monocytic cell line THP-1 (ATCC), the murine macrophage cell line RAW264.7 (ATCC) or human peripheral blood monocytic cells (PBMC's) ex vivo peritoneal exudates cells (PECs). […] Finally, the cells were resuspended in ME medium, counted and brought at a concentration of 5*10^5/ml (stock solution). […]"}, "[3]": {"target": "T2, rhMIF (recombinant human MIF) (Homo sapiens, UniProt P14174)", "T2 construct": "recombinant human MIF^2-115 (rhMIF, R&D Systems); purchased R&D systems", "T2 sequence (P14174 2-115)": "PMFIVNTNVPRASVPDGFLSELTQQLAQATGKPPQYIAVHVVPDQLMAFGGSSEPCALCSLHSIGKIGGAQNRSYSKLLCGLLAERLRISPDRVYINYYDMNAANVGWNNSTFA", "assay": "Surface plasmon resonance, binding to human MIF", "conditions": "SPR, 1:1 Langmuir model", "experimental": "as §1"}},
  "data": [
    {"molecule": "B1", "values": [
      {"measurement": "Kon", "setting": "[1]", "value": "0.86 10^5M^−1s^−1"},
      {"measurement": "TNF reduction", "setting": "[2]", "value": 50, "unit": "%"},
      {"measurement": "Kon", "setting": "[3]", "value": "0.98 10^5M^−1s^−1"}
    ]}
  ]
}
